Test results published in publication PMC9309012 (Journal of medicinal chemistry, 2021).

Tested on: HeLa cells
Assay: Cytotoxicity assay in human HeLa cells
Format: cell-based
Conditions: 48 h, described in words (Fig. 2-4)

Row | Substance | human cytotoxicity
1 | (Triethylphosphine)gold(I) iodide [Compound 26] | decreased but either to a lesser extent or to below the assay sensitivity
2 | (Trimethylphosphine)gold(I) iodide [Compound 25] | decreased but either to a lesser extent or to below the assay sensitivity
